Experimental data reported in patent US20230365559A1, “NOVEL AMINOPYRIDINES AND THEIR USE IN TREATING CANCER” (priority 2020, published 2023).

Experiments:
UT-SCC-54C cells [1] = assay: Radiosensitisation of UT-SCC-54C HNSCC cells, regrowth (sulforhodamine B) assay, oxic (Table 16); type: cell-based; details: Homo sapiens
UT-SCC-54C cells [2] = assay: Radiosensitisation of UT-SCC-54C HNSCC cells, clonogenic survival, oxic and anoxic (Table 18); type: cell-based, human; details: no radiation

In the case of `COc1ccc(-n2c(=O)n(C)c3cnc(Nc4ccc(OC)cc4C)cc32)cc1` [Compound 195, 6-((4-Methoxy-2-methylphenyl)amino)-1-(4-methoxyphenyl)-3-methyl-1,3-dihydro-2H-imidazo[4,5-c]pyridin-2-one], the IC50 (UT-SCC-54C cells [1]) is reported as over 10 µM, the “Plating efficiency drug/no drug” value (UT-SCC-54C cells [2]; 20% O2, compound conc 0.33 μM) is reported as 1.08 and the “Plating efficiency drug/no drug” value (UT-SCC-54C cells [2]; 20% O2, compound conc 1 μM) is reported as 1.09. For the same compound, the “Plating efficiency drug/no drug” value (UT-SCC-54C cells [2]; 20% O2, compound conc 3 μM) was 1.14.
